{"source": "paper PMC9628480", "about": "“Discovery and structural characterization of chicoric acid as a SARS-CoV-2 nucleocapsid protein ligand and RNA binding disruptor” (Scientific Reports, 2022)", "key": {"Vero CCL81 cells": {"tested_on": "Vero CCL81 cells", "assay": "MTT cell viability, Vero CCL81", "assay_type": "cell-based, African green monkey", "details": "Vero CCL81, CA 25 and 100 µM, 48 h"}, "[1]": {"set-up": "method as in PMID 14748892, PMID 16524737", "details": "cited from earlier work"}, "Calu-3 cells": {"tested_on": "Calu-3 cells", "assay": "MTT cell viability, Calu-3", "assay_type": "cell-based, Human", "details": "Calu-3, CA 25 and 100 µM, 48 h"}}, "data": [{"substance": "L-Chicoric acid", "values": [{"measurement": "cell viability (MTT)", "setting": "Vero CCL81 cells", "result": "remained viable"}, {"measurement": "cell permeability", "setting": "[1]", "result": "low"}, {"measurement": "cell viability (MTT)", "setting": "Calu-3 cells", "result": "remained viable"}]}]}
